# Test results reported in patent publication US9657092B2, “S100A4 antibodies and therapeutic uses thereof” (LYKERA BIOMED SA, priority 2010, dated 2017).
# T1: Human S100A1 (Homo sapiens, UniProt P23297)
# T1 construct: purchased Abnova
# T1 sequence (P23297 1-94): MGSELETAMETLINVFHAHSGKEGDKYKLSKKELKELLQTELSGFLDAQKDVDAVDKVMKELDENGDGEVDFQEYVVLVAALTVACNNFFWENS
# Columns and labels:
# Human S100A1 = target: T1, Human S100A1; test: ELISA specificity (reaction pattern of mAb); type: binding; design: key: ++++ positive reaction; − no reaction
# Text: Monoclonal antibodies 5C3, 1E2, 6B9, 8B6 and 5A3 were screened for cross-reaction against other members of the S100 family: recombinant human S100A1, S100A2, S100A6 (Abnova), recombinant human S100A7, S100P (cloned from the MDA-MD-468 breast adenocarcinoma cell line and from the HeLa cervix adenocarcinoma cell line, respectively, at Leitat Biomed Division), and recombinant murine S100A4 (cloned from the NIH/3T3 mouse embryo fibroblast adenocarcinoma cell line at Leitat Biomed Division). The immunoglobulin isotype for monoclonal antibodies against S100A4 were determined using the Mouse immunoglobulin subtyping kit (Sigma).
# MiaPACA-2 tumors = test: MiaPACA-2 subcutaneous xenograft tumor development; type: in vivo, nude mice; conditions: MiaPACA-2, 25 mg/kg i.p. three times a week, day 30
# Experimental: (§1) MiaPACA-2 human pancreatic adenocarcinoma cell line and HCT116 human colorectal adenocarcinoma cell line in exponential growth were harvested with trypsin-EDTA (0.05%/0.02%) (Invitrogen), washed, and examined for viability by trypan blue dye exclusion. Viability was greater than 95%. For primary tumor growth, cells (either 5×10^6 or 1×10^6 cells for MiaPACA-2 or HCT116 respectively in 0.1 mL DMEM high glucose) were subcutaneously injected into the flanks of nude mice. Tumor volumes between 65-160 mm^3 for MiaPACA-2 and volumes between 155-370 mm^3 for HCT116 were used to divide the mice into two groups of either ten mice each (MiaPACA-2) or seven mice each (HCT116), such that the mean tumor size was equal between groups (approximately 100 mm^3 for MiaPACA-2 or 220 mm^3 for HCT116). Tumor growth was followed by measuring tumor diameters with calipers and the tumor volume was calculated using an approximated formula for a prolate ellipsoid: volume=(D×d^2)/2 where D is the longest axis of the tumor and d the shortest. Mice were treated either with vehicle (PBS) or with the antibody, i.p. three times per week at 25 mg/Kg/100 μL of sterile PBS, starting the treatment at defined tumor volume (100 mm^3 and 220 mm^3). At the end of the experiment animals were killed, tumors were surgically removed, weighed and half tumor were embedded in OCT compound for subsequent CD31 immunostaining analyses and the other half tumor were fixed in formaldehyde for subsequent analyses. Blood samples from animals bearing MiaPACA-2 or HCT116 tumors were collected at the end of the experiment (all animals), using EDTA-coated material. Immediately after, plasma samples were centrifuged for 10 min at 5000 rpm, at room temperature and stored at −20° C. until analysis.
# (§2) Comparisons between groups were made using the two-tailed nonparametric Mann Whitney U test. Differences for which P value was less than 0.05 were considered statistically significant.
# (§3) Xenografts were implanted and grown, tumor-bearing animals randomly assigned and treated as described above. […]
# HCT116 tumors = test: HCT116 subcutaneous xenograft tumor development; type: in vivo, nude mice; conditions: HCT116, 25 mg/kg i.p. three times a week, day 21
# Experimental: as §1, §2, §3
molecule,measurement,setting,value
"5C3: mouse monoclonal anti-S100A4 antibody, IgG1, from hybridoma ECACC 10022401; VL SEQ ID NO: 1, VH SEQ ID NO: 2 (antibody, V domains shown, VH region of the 5C3 monoclonal antibody; VL region of the 5C3 monoclonal antibody) VH: EAQLQQSGAELVKPGASVKLSCTASGFNIQETYMHWVKQRPEQGLEWIGRIDPANGNTKDDPKFQGKASITVDTSSNTAYLQLSSLTSEDTAVYYCASSYAMDYWGQGTSVTVSS VL: DVLMTQTPLSLPVSLGDQASISCRSSQSIVHSNGNTYLEWYLQKTGQSPELLIYKVSNRLSGVPDRFSGSGSGTDFTLKISRVEAEDLGVYYCFQGSHVPFTFGSGTKLEIK","Reaction Pattern of mAb in ELISA, Human S100A1",Human S100A1,−
same,T/C ratio of tumor volume,MiaPACA-2 tumors,46%
same,T/C ratio of tumor weight,MiaPACA-2 tumors,38%
same,maximum mean relative tumor volume respect to the initial volume,MiaPACA-2 tumors,274%
same,T/C ratio of tumor volume,HCT116 tumors,91%
same,T/C ratio of tumor weight,HCT116 tumors,74%
same,maximum mean relative tumor volume respect to the initial volume,HCT116 tumors,511%
